Source: patent US5229412A, “Method for relieving anxiety using 5-hydroxytryptamine-1A-receptor-binding compounds” (The Board of Trustees of the Leland Stanford Junior …, priority 1988, dated 1993)

Sequences of proteins named here, by UniProt entry; tags and fusion partners are left off.
UniProt P14842, whole entry: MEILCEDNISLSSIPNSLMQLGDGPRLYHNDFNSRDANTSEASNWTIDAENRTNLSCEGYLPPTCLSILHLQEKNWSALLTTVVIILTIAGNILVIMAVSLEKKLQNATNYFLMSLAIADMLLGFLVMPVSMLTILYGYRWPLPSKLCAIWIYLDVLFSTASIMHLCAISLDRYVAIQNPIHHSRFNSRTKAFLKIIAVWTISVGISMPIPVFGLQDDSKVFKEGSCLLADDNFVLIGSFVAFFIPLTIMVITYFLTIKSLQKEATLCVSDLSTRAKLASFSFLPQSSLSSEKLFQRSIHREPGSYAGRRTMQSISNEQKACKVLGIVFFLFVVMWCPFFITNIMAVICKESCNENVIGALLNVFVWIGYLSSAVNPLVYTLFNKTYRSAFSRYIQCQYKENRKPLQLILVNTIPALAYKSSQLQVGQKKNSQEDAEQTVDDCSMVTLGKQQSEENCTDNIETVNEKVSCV

Tests used:
[1] = test system: β-adrenergic receptors; assay: Radioligand binding, β-adrenergic receptors labeled by ^3 H-dihydroalprenolol (^3 H-DHA), rat cortex
Experimental: (§1) Radioligand binding studies were performed described in Peroutka et al., Molecular Pharmacology (1979) 16:687-699. Briefly, rat brain were purchased from Pel-Freez (Roger, AR). On the day of study, the samples were thawed in Tris-HCl buffer. Tissues were homogenized in 20 volumes Tris-HCl buffer (pH 7.7 at 25° C.) using a Brinkmann Polytron and then centrifuged in an IEC B20A centrifuge at 49,000×g for 10 min. The supernatant was discarded, and the pellet was resuspended in the same volume of Tris-HCl buffer and incubated at 37° C. for 10 min prior to a second centrifugation at 49,000×g for 10 min. The final pellet was resuspended in 80 volumes of Tris-HCl buffer containing 10 μM pargyline, 4 mM calcium chloride and 0.1% ascorbic acid. The suspensions were immediately used in the binding assay. […] Following incubation at 25° C. for 30 minutes, the assays were rapidly filtered under vacuum through #32 glass filters (Schleicher and Scheull: Keene, NH) with two 5 ml washes using 50 mM Tris-HCl buffer. Radioactivity was measured by liquid scintillation spectroscopy in […] of 3a70 Counting Cocktail (Research Products International: Mt. Prospect, IL) at 54% efficiency. […] All drugs were diluted and dissolved in assay buffer.
(§2) Each experiment was performed in triplicate and repeated 3 to 6 times.

[2] = molecular target: T1, 5-HT2 (Rattus norvegicus, UniProt P14842); assay: Radioligand binding, 5-HT2 sites labeled by ^3 H-spiperone, rat cortex; details: used for Ki calculation
T1 construct: rat brain were purchased from Pel-Freez; tissue Pel-Freez (Roger, AR); host or cells: rat brain (cortex) membranes
Experimental: as §1, §2

Structure (SMILES) | selectivity for β-adrenergic receptors (in words) [1] | Kd [2] [pM]
CC(C)(NC(=O)CBr)[C@H]1CC[C@@](C)(NCC(O)COc2cccc3[nH]ccc23)CC1 (stereo partly drawn) [Compound 8, N^8-(Bromoacetyl)-N^1-[3-(4-indolyloxy)-2-hydroxypropyl]-(Z)-1,8-diamino-p-menthane] | most selective for β-adrenergic receptors | 
CC(C)(NCC(O)COc1cccc2[nH]c(C#N)cc12)[C@H]1CC[C@@](C)(NC(=O)CBr)CC1 (stereo partly drawn) [Compound 11] | most selective for β-adrenergic receptors | 
O=C(CCCN1CCC2(CC1)C(=O)NCN2c1ccccc1)c1ccc(F)cc1 [^3 H-spiperone, reference compound] |  | 710
